Columns and labels:
IKs current = details: cited from earlier work
[1] = target: hERG channel (CHO-hERG cells) (Homo sapiens, UniProt Q12809); test: QPatch whole-cell patch clamp, hERG tail current; details: at highest test concentration 30,000 nM; Mean ± SEM

Protein sequences, listed by entry. Tags and fused reporters are not part of them. Lines headed by an entry give the natural chain unless they say otherwise; changes in a name come on top.
UniProt Q12809: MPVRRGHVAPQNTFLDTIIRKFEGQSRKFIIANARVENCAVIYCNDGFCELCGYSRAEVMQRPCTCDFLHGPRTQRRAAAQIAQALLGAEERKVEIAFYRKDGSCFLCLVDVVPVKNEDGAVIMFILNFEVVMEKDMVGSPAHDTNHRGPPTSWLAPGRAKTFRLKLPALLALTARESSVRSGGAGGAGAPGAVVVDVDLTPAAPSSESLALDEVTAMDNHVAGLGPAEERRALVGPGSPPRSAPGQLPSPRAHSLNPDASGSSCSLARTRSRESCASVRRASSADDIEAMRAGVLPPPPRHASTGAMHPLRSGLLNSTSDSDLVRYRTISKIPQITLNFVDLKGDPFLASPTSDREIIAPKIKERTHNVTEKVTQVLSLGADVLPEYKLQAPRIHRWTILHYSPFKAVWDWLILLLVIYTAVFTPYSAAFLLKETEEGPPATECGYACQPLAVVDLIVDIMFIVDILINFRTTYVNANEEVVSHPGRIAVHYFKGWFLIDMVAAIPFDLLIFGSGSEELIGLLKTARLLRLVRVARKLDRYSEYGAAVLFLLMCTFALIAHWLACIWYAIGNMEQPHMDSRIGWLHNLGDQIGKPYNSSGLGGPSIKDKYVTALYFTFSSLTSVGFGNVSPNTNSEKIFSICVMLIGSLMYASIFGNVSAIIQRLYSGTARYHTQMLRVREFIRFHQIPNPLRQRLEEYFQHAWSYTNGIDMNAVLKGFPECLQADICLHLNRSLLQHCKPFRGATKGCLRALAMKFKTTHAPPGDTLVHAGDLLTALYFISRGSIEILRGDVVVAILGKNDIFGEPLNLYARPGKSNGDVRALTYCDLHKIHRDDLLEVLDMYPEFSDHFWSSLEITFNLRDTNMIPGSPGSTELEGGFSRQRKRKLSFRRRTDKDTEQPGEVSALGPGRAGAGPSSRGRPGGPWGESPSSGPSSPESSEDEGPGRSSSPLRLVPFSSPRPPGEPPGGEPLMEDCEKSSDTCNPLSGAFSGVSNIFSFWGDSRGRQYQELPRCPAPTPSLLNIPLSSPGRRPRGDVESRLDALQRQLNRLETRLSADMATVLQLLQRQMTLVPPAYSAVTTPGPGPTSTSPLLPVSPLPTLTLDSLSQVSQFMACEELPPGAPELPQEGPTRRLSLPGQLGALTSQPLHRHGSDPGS

For `O=C(Cc1ccc(C(F)(F)F)cc1C(F)(F)F)N[C@@H]1N=C(c2ccccc2)c2ccccc2N(CC(F)(F)F)C1=O` [L-673, (R)-2-(2,4-trifluoromethyl)-N-[2-oxo-5-phenyl-1-(2,2,2-trifluoroethyl)-2,3-dihydro-1H-benzo[e][1,4]diazepin-3-yl]acetamide], the “potency relative to JNJ303 or HMR-1556 on IKs current inhibition” value (IKs current) is listed as 10 fold and the “% inhibition hERG” value [1] is listed as 27 ± 3%@30,000 [4].

Source: publication PMC6558757 (JRSM Cardiovascular Disease, 2019)
